System: Human immunodeficiency virus
Assay: Ratio of IC50 for HIV1 integrase strand transfer activity to EC50 for HIV1 expressing wild type integrase

CN1CCN(S(=O)(=O)c2cc(O)c(O)c3c2CN(Cc2ccc(F)c(Cl)c2)C3=O)CC1
Ratio IC50/EC50: 10

— ChEMBL document CHEMBL2203025, “6,7-Dihydroxy-1-oxoisoindoline-4-sulfonamide-containing HIV-1 integrase inhibitors” (Bioorg Med Chem Lett, 2012)
